Measurements from ChEMBL document CHEMBL1136058, “4-Anilino-3-cyanobenzo[g]quinolines as kinase inhibitors” (Bioorg Med Chem Lett, 2002).

Protein sequences, listed by entry. Tags and fused reporters are not part of them.
UniProt P00533, whole entry: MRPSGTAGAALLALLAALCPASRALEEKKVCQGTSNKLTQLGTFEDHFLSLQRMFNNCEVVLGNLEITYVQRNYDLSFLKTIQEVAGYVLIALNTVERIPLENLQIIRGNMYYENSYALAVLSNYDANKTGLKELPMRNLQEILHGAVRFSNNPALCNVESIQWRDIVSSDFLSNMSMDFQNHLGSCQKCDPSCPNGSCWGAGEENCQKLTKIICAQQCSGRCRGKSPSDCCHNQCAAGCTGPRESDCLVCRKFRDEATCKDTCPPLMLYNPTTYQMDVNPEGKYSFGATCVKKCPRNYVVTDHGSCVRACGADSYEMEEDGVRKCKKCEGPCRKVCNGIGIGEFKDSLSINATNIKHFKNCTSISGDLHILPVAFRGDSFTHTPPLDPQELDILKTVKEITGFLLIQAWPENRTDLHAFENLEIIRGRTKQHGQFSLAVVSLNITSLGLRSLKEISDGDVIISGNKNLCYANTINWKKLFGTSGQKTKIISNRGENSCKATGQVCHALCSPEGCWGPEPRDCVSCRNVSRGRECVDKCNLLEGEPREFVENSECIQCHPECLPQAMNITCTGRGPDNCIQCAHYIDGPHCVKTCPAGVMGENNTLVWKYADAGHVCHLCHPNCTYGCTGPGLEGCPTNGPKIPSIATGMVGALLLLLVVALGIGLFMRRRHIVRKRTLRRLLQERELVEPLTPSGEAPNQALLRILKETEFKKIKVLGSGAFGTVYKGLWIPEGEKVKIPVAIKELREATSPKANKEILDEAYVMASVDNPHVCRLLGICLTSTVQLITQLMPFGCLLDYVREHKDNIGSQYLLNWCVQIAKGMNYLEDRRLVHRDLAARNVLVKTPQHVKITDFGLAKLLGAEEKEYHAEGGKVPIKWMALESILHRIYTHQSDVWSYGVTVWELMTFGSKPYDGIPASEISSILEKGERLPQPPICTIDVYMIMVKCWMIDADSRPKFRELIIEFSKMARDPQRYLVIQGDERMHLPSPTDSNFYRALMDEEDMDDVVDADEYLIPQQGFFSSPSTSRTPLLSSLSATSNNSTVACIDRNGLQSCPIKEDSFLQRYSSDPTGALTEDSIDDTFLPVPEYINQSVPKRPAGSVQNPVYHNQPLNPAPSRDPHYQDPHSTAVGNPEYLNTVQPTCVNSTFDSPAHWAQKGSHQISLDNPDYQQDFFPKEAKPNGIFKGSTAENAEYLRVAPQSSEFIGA

Key:
[1] = system: SW-620; test: Inhibition of SW620 cell proliferation; conditions: Homo sapiens
[2] = target: Epidermal growth factor receptor (Homo sapiens, UniProt P00533); test: Inhibition of epidermal growth factor receptor (EGFR)

IC50 [1]: 9.89 µM
IC50 [2]: 5.17 µM
SMILES: COc1cc2ncc(C#N)c(Nc3ccc(F)c(Cl)c3)c2cc1OC
